Cc1nc(Nc2ncc(C(=O)Nc3c(C)cccc3Cl)s2)cc(N2CCN(CCO)CC2)n1 [dasatinib]
Clinical condition of mice and deaths (after dasatinib dose was decreased to 20 mg/kg): continued to be in poor health, with 1 death | Death in combination group (fifth mouse of the dasatinib and ESK combination group): died from dasatinib toxicity on day 8 of therapy

Source: patent US20140271644A1, “COMBINATION/ADJUVANT THERAPY FOR WT-1-POSITIVE DISEASE” (Memorial Sloan-Kettering Cancer Center, priority 2013, published 2014)
